Measured values as given in PubChem BioAssay AID900 (National Center for Advancing Translational Sciences (NCATS), 2007).
The entries are a selection whose mix differs from that of the whole data set. Active and inactive are the calls of the source. Calls follow the shape of the dose curve; as a rule, active = well fitted inhibition curve with a large enough effect; inconclusive = small, poorly fitted or top-dose-only effect; inactive = flat fitted curve, though single readings scatter.

target: Caspase-1 (Homo sapiens) (UniProt P29466); assay: qHTS Assay for Allosteric/Competitive Inhibitors of Caspase-1; conditions: Caspase-1 enzyme, Ac-WEHD-AFC fluorogenic rate; at 57.5 µM (top of the series) unless noted;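 also: plate controls were vehicle for no effect and no substrate for full effect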
From the text: NIH Molecular Libraries Screening Centers Network [MLSCN]
NIH Chemical Genomics Center [NCGC]
PI Name: Dr. James Wells,
Dr. Enrique Perez-Paya, Dr.Janice Williams, Dr. Dennis Wolan, a person
The caspases (Cysteine Aspartyl Protease) comprise a related family of 14 dimeric proteases that are critical mediators of apoptosis (programmed cell death) and inflammation. The caspases represent an important class of drug targets for stroke, ischemia, cancer and inflammatory diseases. […] One goal of this project was to identify compounds that act as allosteric inhibitors via stabilizing the procaspase form of the enzyme. Previous work in Well's laboratory has shown that such allosteric inhibitors can be identified and these act by binding at the dimer interface of enzyme (Hardy, Lam et al., 2004).
The biochemical assay was configured using purified caspase 1 at a high enzyme concentration to promote formation of the homodimers and thus facilitate the identification of allosteric inhibitors. The overall goal was to identify reversible inhibitors with better drug-like properties than the currently available set of aspartyl-containing peptidomimetics that covalently bind the active site. Caspase 1 was assayed using the profluorescent substrate Ac-WEHD-AFC. After initiation of the assay with substrate the plates were rapidly read using an automated robotic system (Kalypsys, Inc.) to maintain consistent timing. A kinetic mode of detection was used where the initial rate was collected (estimated final product formation was ~10%). Compounds were screened as a concentration-titration series that ranged from 57 uM to 0.7 nM. Below is the protocol used for caspase 1.
NCGC Assay Protocol Summary:
Caspase 1 was prepared in buffer (50 mM HEPES pH 7.5, 50 mM KCl, 200 mM NaCl, 10 mM DTT, 0.1% CHAPS) at a concentration of 66.6 nM and 3 uL was dispensed to all wells using black solid Kalypsys 1536-well plates. 20 nL of DMSO containing compounds was added using a pin-tool (Kalypsys Inc.) to columns 5-48. Then 20 nL of DMSO solution from a control plate was added to columns 1-4. Controls were: Column 1, 16 point titration with each concentration in duplicate (1:1 dilutions in DMSO; final starting concentration was 57 uM) of the caspase 1 inhibitor Ac-WEHD-CHO (Alexis Biochemicals); Column 2, a 16 point titration with each concentration in duplicate of the free AFC fluorophore prepared in DMSO (Alexis Biochemicals), final starting was 40 uM; Column 3 neutral (DMSO only) control; Column 4: DMSO alone, to serve as a negative control (no substrate was added). Then 1 uL of 20 uM the substrate Ac-WEHD-AFC (Alexis Biochemicals) prepared in the same buffer was dispensed to all wells except columns 2 and 4 and the plates were immediately transferred (< 1 min) to the Viewlux. The plates were then exposed using 405 nm excitation/520 nm emission filters for 4 sec and read at 20 sec intervals for 3 min. Final enzyme concentration was 50 nM and the final substrate concentration was 5 uM.
Concentration-response curves were fitted to the data calculated from slope of the linear regression of fluorescent intensity versus time (the rate). The concentration-effect curves were then classified based on curve quality (r2), response magnitude and degree of measured activity. […] Inconclusive compounds had appreciable concentration-dependent effects on both the measured rate and the interpolated basal fluorescence intensity at the start of the reaction but where the basal fluorescent intensity was marginal (e.g. < 10-fold). Inconclusive compounds also encompass highly fluorescent compounds (>100-fold increases in fluorescent intensities values relative to controls) where artificial concentration-dependent decreases in the rate occurred at high compound concentrations due to fluorescent interferences.
Keywords: Caspase 1, proteases, profluorescent, MLSMR, MLSCN, NIH Roadmap, qHTS, NCGC

Structure (SMILES)	activity change, negative = inhibition
Cc1ccc(C)c(NP(C)(=O)Oc2ccccc2)c1 (stereo unspecified)	inactive: -0.627%
Cc1ccc([N+](=O)[O-])cc1[N+](=O)[O-]	inactive: -1.47%
O=[N+]([O-])c1cccc([N+](=O)[O-])c1	inactive: -3.7%
Cc1nc2ccc3ccccc3c2s1.O=[N+]([O-])c1cc([N+](=O)[O-])c(O)c([N+](=O)[O-])c1	inactive: -5.06%
CCOP(C)(=S)SCC(=O)NC(C)C(=O)O (stereo unspecified)	inactive: -2.7%
CP(=O)(NC(=O)Nc1ccccc1)Oc1ccccc1 (stereo unspecified)	inactive: -0.181%
CP(=S)(Nn1cnnc1)Oc1ccccc1 (stereo unspecified)	inactive: -1.06%
N1=C(c2nnc(-c3nn[nH]n3)nn2)NNN1	inactive: -1.29% [at 11.5 µM]
COc1ccccc1OP(C)(=O)Nc1ccc(C)cc1 (stereo unspecified)	inactive: 2.05%
Cc1ccc(NP(C)(=O)Oc2ccccc2)c(C)c1 (stereo unspecified)	inactive: 0.969%
O=[N+]([O-])[O-].[NH4+]	inactive: -1.98%
CP(=O)(Nc1ccccn1)Oc1ccccc1 (stereo unspecified)	inactive: 3.02%
Cc1nc2ccc3ccccc3c2o1.O=[N+]([O-])c1cc([N+](=O)[O-])c(O)c([N+](=O)[O-])c1	inactive: -8.59%
COc1ccccc1OP(C)(=O)Nc1ccc(C)c(C)c1 (stereo unspecified)	inactive: -2.28%
CP(=O)(Oc1ccccc1)N1CCOC1=O (stereo unspecified)	inactive: -0.285%
COc1ccccc1OP(C)(=O)Nc1c(C)n(C)n(-c2ccccc2)c1=O (stereo unspecified)	inactive: -0.745%

Structure (SMILES)	activity change, negative = inhibition
OCCSCCO	inactive: -1.02%
N#[O+].[C-]#N.[C-]#N.[C-]#N.[C-]#N.[C-]#N.[Fe+2].[Na+].[Na+]	inactive: -3.42%
NNC(NN)NN.n1nc(-c2nn[nH]n2)n[nH]1	inactive: -0.24% [at 11.5 µM]
Cc1ccccc1NP(C)(=O)Nc1ccccc1C	inactive: -0.802%
CCN(CCCl)Cc1ccccc1C	inactive: -0.339%
[NH4+].[O-][Cl+3]([O-])([O-])[O-]	inactive: -0.99%
CP(=O)(Nc1ccc2c(c1)OCCO2)Oc1ccccc1 (stereo unspecified)	inactive: -1.25%
CCOP(=O)(CC)OCC	inactive: 0.539%
CCOP(C)(=S)SCC(=O)NC(C)(CC)C(=O)O (stereo unspecified)	inactive: -1.24%
Cc1ccc([N+](=O)[O-])c([N+](=O)[O-])c1	inactive: 1.02%
Cc1c([N+](=O)[O-])cccc1[N+](=O)[O-]	inactive: -0.37%
CN(C)CCOC(=O)C(O)(c1ccccc1)C1CCCCC1 (stereo unspecified)	inactive: 0.194%
CCC(C)(OO)OOC(C)(CC)OO (stereo unspecified)	inactive: -2.2%
Cc1cccc([N+](=O)[O-])c1[N+](=O)[O-]	inactive: -0.11%
CP(=O)(Nc1ccccc1F)Oc1ccccc1 (stereo unspecified)	inactive: 1.38%
